Measurements as given in ChEMBL document CHEMBL3259678, “Oxathiazolones Selectively Inhibit the Human Immunoproteasome over the Constitutive Proteasome” (ACS Med Chem Lett, 2014).

Target: T1, Proteasome subunit beta type-8 (Homo sapiens) (UniProt P28062)
T1 sequence (whole entry): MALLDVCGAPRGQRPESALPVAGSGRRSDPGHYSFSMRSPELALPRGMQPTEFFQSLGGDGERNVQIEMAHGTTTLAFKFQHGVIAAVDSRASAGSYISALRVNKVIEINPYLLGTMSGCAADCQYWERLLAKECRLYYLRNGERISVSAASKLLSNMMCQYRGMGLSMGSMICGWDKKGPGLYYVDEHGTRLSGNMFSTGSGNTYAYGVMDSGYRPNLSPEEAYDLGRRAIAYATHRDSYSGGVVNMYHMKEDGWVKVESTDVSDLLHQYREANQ
Assay: Inhibition of immunoproteasome-20S subunit beta5i in human PBMC assessed as substrate hydrolysis using suc-LLVY-AMC as substrate by fluorescence analysis
Conditions: TDE = time-dependent effect
Procedure, shortened: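 Purified human i-20S preincubated with inhibitor for 15 min before suc-LLVY-AMC was added; inhibitor ranged from 9.8 nM to 100 μM. AMC fluorescence release read. IC50 from the concentration–response; where β2i/β1i inhibition exceeded 80% at 100 μM, IC50 was also determined.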

inhibition: tde
SMILES: O=c1oc(-c2ccc(-c3ccccc3)cc2)ns1
